Data taken from patent US8962608B2, “Cycloalkylnitrile pyrazole carboxamides as janus kinase inhibitors” (Merck Sharp & Dohme Corp., priority 2011, dated 2015).

Amino acid sequences for entries named in this document (tags omitted). Residues count along the entry.
UniProt P23458, 875-1153: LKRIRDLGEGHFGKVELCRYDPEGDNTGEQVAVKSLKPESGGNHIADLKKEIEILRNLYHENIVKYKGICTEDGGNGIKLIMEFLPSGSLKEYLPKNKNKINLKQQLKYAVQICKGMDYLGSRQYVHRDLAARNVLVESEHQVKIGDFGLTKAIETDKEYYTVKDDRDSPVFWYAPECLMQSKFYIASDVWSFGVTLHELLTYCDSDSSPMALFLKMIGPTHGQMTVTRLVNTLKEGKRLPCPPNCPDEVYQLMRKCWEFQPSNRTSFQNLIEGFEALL

target: JAK1 (recombinant purified GST-tagged catalytic domain) (Homo sapiens (Human), UniProt P23458); test: biochemical
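Note: biochemical assay with HTRF read-out.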

Structure (SMILES)	IC50
N#C[C@@H]1C[C@@H](OCC2CC2)CC[C@H]1n1cc(C(N)=O)c(Nc2ccc(F)cc2)n1 (single isomer, unassigned) [Example 26-10, 1-[(1R,2R,4S or 1S,2S,4R)-2-cyano-4-(cyclopropylmethoxy)cyclohexyl]-3-[(4-fluorophenyl)amino]-1H-pyrazole-4-carboxamide]	21 nM
CC(C)(c1ccc(Nc2nn([C@H]3CCCC[C@@H]3C#N)cc2C(N)=O)cc1F)[C@@H](O)C(F)(F)F (single isomer, unassigned) [Example 17-33, 1-[(1S,2S or 1R,2R)-2-cyanocyclohexyl]-3-({3-fluoro-4-[(2R or 2S)-3,3,3-trifluoro-2-hydroxy-1,1-dimethylpropyl]phenyl}amino)-1H-pyrazole-4-carboxamide]	2 nM
N#C[C@H]1C[C@H](NCC2CC2)CC[C@@H]1n1cc(C(N)=O)c(Nc2ccc(S(=O)(=O)C(F)(F)F)cc2)n1 (single isomer, unassigned) [Example 28-173, 1-{(1S,2S,4R or 1R,2R,4S)-2-cyano-4-[(cyclopropyl-methyl)amino]cyclohexyl}-3-({4-[(trifluoro-methyl)sulfonyl]phenyl}amino)-1H-pyrazole-4-carboxamide]	0.15 nM
CC(C)(C)OC(=O)N[C@@H]1CC[C@H](C#N)C(n2cc(C(N)=O)c(Nc3ccc(F)cc3)n2)C1 (single isomer, unassigned) [Example 44-1, tert-Butyl[(1R,3S,4S or 1S,3R,4R)-3-{4-carbamoyl-3-[(4-fluorophenyl)amino]-1H-pyrazol-1-yl}-4-cyanocyclohexyl]carbamate]	2 nM
N#C[C@H]1C[C@@H](NCCC(F)(F)F)CC[C@@H]1n1cc(C(N)=O)c(Nc2ccc(S(=O)(=O)C(F)(F)F)cc2)n1 (single isomer, unassigned) [Example 28-166, 1-{(1S,2S,4S or 1R,2R,4R)-2-cyano-4-[(3,3,3-trifluoro-propyl)amino]cyclohexyl}-3-({4-[(trifluoro-methyl)sulfonyl]phenyl}amino)-1H-pyrazole-4-carboxamide]	2 nM
CC1(C)CN([C@H]2CC[C@H](n3cc(C(N)=O)c(Nc4ccc([C@H](O)C(F)(F)F)cc4)n3)[C@@H](C#N)C2)C1 (single isomer, unassigned) [Example 28-93, 1-[(1S,2S,4S or 1R,2R,4R)-2-cyano-4-(3,3-dimethylazetidin-1-yl)cyclohexyl]-3-({4-[(1S or 1R)-2,2,2-trifluoro-1-hydroxyethyl]phenyl}amino)-1H-pyrazole-4-carboxamide]	0.06 nM
N#C[C@H]1C[C@@H](NCC(F)(F)F)CC[C@@H]1n1cc(C(N)=O)c(Nc2ccc(S(=O)(=O)C(F)(F)F)cc2)n1 (single isomer, unassigned) [Example 28-107, 1-{(1S,2S,4S or 1R,2R,4R)-2-cyano-4-[(2,2,2-trifluoroethyl)amino]cyclohexyl}-3-({4-[(trifluoro-methyl)sulfonyl]phenyl}amino)-1H-pyrazole-4-carboxamide]	2 nM
CN(C)[C@H]1CC[C@H](n2cc(C(N)=O)c(Nc3ccc(C(F)(F)F)nc3)n2)[C@@H](C#N)C1 (single isomer, unassigned) [Example 28-22, 1-[(1S,2S,4S or 1R,2R,4R)-2-cyano-4-(dimethylamino)cyclohexyl]-3-{[6-(trifluoromethyl)pyridin-3-yl]amino}-1H-pyrazole-4-carboxamide]	8 nM
C[C@H](N[C@@H]1CC[C@H](n2cc(C(N)=O)c(Nc3ccc(C(F)(F)F)nc3)n2)[C@@H](C#N)C1)C1CC1 (single isomer, unassigned) [Example 28-19, 1-[(1S,2S,4R or 1R,2R,4S)-2-cyano-4-{[(1S)-1-cyclopropylethyl]amino}cyclo-hexyl]-3-{[6-(trifluoromethyl)pyridin-3-yl]amino}-1H-pyrazole-4-carboxamide]	31 nM
CC(C)(C(=O)O)c1ccc(Nc2nn([C@H]3CCC(N4CC5(CCC5)C4)C[C@@H]3C#N)cc2C(N)=O)cc1 (single isomer, unassigned) [Example 28-75, 2-[4-({1-[(1S,2S,4R or 1R,2R,4S)-4-(2-azaspiro[3.3]hept-2-yl)-2-cyanocyclohexyl]-4-carbamoyl-1H-pyrazol-3-yl}amino)phenyl]-2-methylpropanoic acid]	0.25 nM
CCNC1CCC(n2cc(C(N)=O)c(Nc3ccc(S(=O)(=O)C(F)(F)F)cc3)n2)[C@@H](C#N)C1 (mixture of isomers) [Example 27-5, 1-[(1S,2S and 1R,2R)-2-cyano-4-(ethylamino)cyclohexyl]-3-({4-[(trifluoromethyl)sulfonyl]phenyl}amino)-1H-pyrazole-4-carboxamide]	0.2 nM
CC1(C)CN([C@@H]2CC[C@H](n3cc(C(N)=O)c(Nc4ccc([C@@H](O)C(F)(F)F)cc4)n3)[C@@H](C#N)C2)C1 (single isomer, unassigned) [Example 28-81, 1-[(1S,2S,4R or 1R,2R,4S)-2-cyano-4-(3,3-dimethylazetidin-1-yl)cyclohexyl]-3-({4-[(1R or 1S)-2,2,2-trifluoro-1-hydroxyethyl]phenyl}amino)-1H-pyrazole-4-carboxamide]	0.2 nM
N#C[C@@H]1C[C@H](OCC2CC2)CC[C@H]1n1cc(C(N)=O)c(Nc2ccc([C@H](O)C(F)(F)F)cc2)n1 (single isomer, unassigned) [Example 26-6, 1-[(1R,2R,4R or 1S,2S,4S)-2-cyano-4-(cyclopropylmethoxy)cyclohexyl]-3-({4-[(1S or 1R)-2,2,2-trifluoro-1-hydroxyethyl]phenyl}amino)-1H-pyrazole-4-carboxamide]	1 nM
N#C[C@H]1C[C@@H](NCC(F)F)CCC1n1cc(C(N)=O)c(Nc2ccc(S(=O)(=O)C(F)(F)F)cc2)n1 (mixture of isomers) [Example 27-14, 1-{(1S,2S,4S and 1R,2R,4R)-2-cyano-4-[(2,2-difluoroethyl)amino]cyclohexyl}-3-({4-[(trifluoromethyl)sulfonyl]phenyl)amino)-1H-pyrazole-4-carboxamide]	0.25 nM
N#C[C@H]1C[C@@H](NCC(F)F)CC[C@@H]1n1cc(C(N)=O)c(Nc2ccnc(F)c2)n1 (single isomer, unassigned) [Example 28-115, 1-{(1S,2S,4S or 1R,2R,4R)-2-cyano-4-[(2,2-difluoroethyl)amino]cyclohexyl}-3-[(2-fluoropyridin-4-yl)amino]-1H-pyrazole-4-carboxamide]	3 nM
N#C[C@H]1C[C@@H](N2CCC2)CC[C@@H]1n1cc(C(N)=O)c(Nc2ccc([C@@H](O)C(F)(F)F)cc2)n1 (single isomer, unassigned) [Example 28-87, 1-[(1S,2S,4S or 1R,2R,4R)-4-azetidin-1-yl-2-cyanocyclohexyl]-3-({4-[(1R or 1S)-2,2,2-trifluoro-1-hydroxyethyl]phenyl}amino)-1H-pyrazole-4-carboxamide]	0.55 nM
CN(C)[C@H]1CC[C@H](n2cc(C(N)=O)c(Nc3ccc(OC(F)(F)F)cc3)n2)[C@@H](C#N)C1 (single isomer, unassigned) [Example 28-86, 1-[(1S,2S,4S or 1R,2R,4R)-2-cyano-4-(dimethylamino)cyclohexyl]-3-{[4-(trifluoromethoxy)phenyl]amino}-1H-pyrazole-4-carboxamide]	0.75 nM
CN(C(C1CC1)C1CC1)[C@H]1CC[C@H](n2cc(C(N)=O)c(Nc3ccc(S(=O)(=O)C(F)(F)F)cc3)n2)[C@@H](C#N)C1 (single isomer, unassigned) [Example 28-178, 1-{(1S,2S,4S or 1R,2R,4R)-2-cyano-4-[(dicyclopropyl-methyl)(methyl)amino]cyclo-hexyl}-3-({4-[(trifluoromethyl)sulfonyl]phen-yl}amino)-1H-pyrazole-4-carboxamide]	0.15 nM
N#C[C@H]1C[C@H](N2CC3(COC3)C2)CC[C@@H]1n1cc(C(N)=O)c(Nc2ccc(C(F)(F)F)cc2)n1 (single isomer, unassigned) [Example 28-124, 1-[(1S,2S,4R or 1R,2R,4S)-2-cyano-4-(2-oxa-6-azaspiro[3.3]hept-6-yl)cyclohexyl]-3-{[4-(trifluoromethyl)phenyl]amino}-1H-pyrazole-4-carboxamide]	1 nM
CC(C)(c1ccc(Nc2nn([C@H]3CCCC[C@@H]3C#N)cc2C(N)=O)cc1F)[C@H](O)C(F)(F)F (single isomer, unassigned) [Example 17-32, 1-[(1S,2S or 1R,2R)-2-cyanocyclohexyl]-3-({3-fluoro-4-[(2S or 2R)-3,3,3-trifluoro-2-hydroxy-1,1-dimethylpropyl]phenyl}amino)-1H-pyrazole-4-carboxamide]	2 nM
CN(CC(F)(F)F)[C@H]1CCC(n2cc(C(N)=O)c(Nc3ccnc(F)c3)n2)[C@@H](C#N)C1 (single isomer, unassigned) [Example 28-233, 1-{(1S,2S,4S or 1R,2R,4R)-2-cyano-4-[methyl(2,2,2-trifluoroethyl)amino]cyclo-hexyl}-3-[(2-fluoropyridin-4-yl)amino]-1 H-pyrazole-4-carboxamide]	1 nM
CN(C(C1CC1)C1CC1)[C@@H]1CC[C@H](n2cc(C(N)=O)c(Nc3ccc(S(=O)(=O)C(F)(F)F)cc3)n2)[C@@H](C#N)C1 (single isomer, unassigned) [Example 28-179, 1-{(1S,2S,4R or 1R,2R,4S)-2-cyano-4-[(dicyclopropyl-methyl)(methyl)amino]cyclo-hexyl}-3-({4-[(trifluoromethyl)sulfonyl]phen-yl}amino)-1H-pyrazole-4-carboxamide]	7 nM
N#C[C@H]1CCCC[C@@H]1n1cc(C(N)=O)c(Nc2ccc(OC(F)(F)F)cc2)n1 (single isomer, unassigned) [Example 17-106, 1-[(1S,2S or 1R,2R)-2-cyanocyclohexyl]-3-{[4-(trifluoromethoxy)phenyl]amino}-1H-pyrazole-4-carboxamide]	1 nM
CN(CC1CC1)[C@@H]1CC[C@H](n2cc(C(N)=O)c(Nc3ccc(C(F)(F)F)cc3)n2)[C@@H](C#N)C1 (single isomer, unassigned) [Example 30-2, 1-{(1S,2S,4R or 1R,2R,4S)-2-cyano-4-[(cyclopropyl-methyl)(methyl)amino]cyclo-hexyl}-3-{[4-(trifluoromethyl)phenyl]amino}-1H-pyrazole-4-carboxamide]	4 nM
